Test results published in PubChem BioAssay AID488965 (Broad Institute, 2010).
The list shows a part of the results, in another mix than the full data. Some salts and complexes are drawn in separate pieces, as the source files them; their charges need not balance. Activity calls are given as the source filed them. No stated cut-off is given here; in the data, active means inhibition above about 30% (passing the limit was not always enough); inconclusive means no clear call, values can overlap the other calls.

test system: PvdQ acylase [Pseudomonas aeruginosa LESB58]; assay: P. aeruginosa PvdQ acylase inhibitors, primary screen, biochemical, fluorescence, plate reader and imaging, single point (AID 488965); details: purified PvdQ acylase, at 10 µM, hits give high values;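 further: 0% = vehicle neutral wells and 100% = reference inhibitor wells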

SMILES	inhibition
CCN(CC)CCCOC(=O)C(O)(c1ccccc1)C1CCCCC1 (stereo not given)	inactive: -12.4%
Cc1c([N+](=O)[O-])cc([N+](=O)[O-])c(Br)c1[N+](=O)[O-]	inactive: -7.01%
O=[N+]([O-])c1cc([N+](=O)[O-])c(OC2CCCCC2O)c([N+](=O)[O-])c1 (stereo not given)	inactive: -22.6%
CCCCCOc1ccc(NP(C)(=O)Oc2ccc(Cl)cc2Cl)cc1 (stereo not given)	inactive: -15.3%
CP(=O)(Nc1ccccc1)Oc1ccc(F)cc1 (stereo not given)	inactive: -5.11%
COc1ccc(OP(C)(=O)Nc2ccc(SC(F)(F)F)cc2)cc1 (stereo not given)	inactive: -14.8%
CCOC(=O)c1ccc(NP(C)(=O)Oc2ccc(F)cc2)cc1 (stereo not given)	inactive: -14.6%
O=C(OCCN1CCN(CCOCc2ccccc2)CC1)C(O)(c1ccccc1)c1ccccc1	inactive: -1.43%
O=C(OC1CN2CCC1CC2)c1ccc([N+](=O)[O-])cc1 (stereo not given)	inactive: -10.6%
COc1ccc2c(c1O)-c1c(O)c(OC)cc3c1[C@H](C2)[N+](C)(C)CC3.O=[N+]([O-])c1cc([N+](=O)[O-])c([O-])c([N+](=O)[O-])c1[O-]	inactive: -0.87%
CC(C)c1ccc(OP(C)(=O)Nc2ccc(SC(F)(F)F)cc2)cc1 (stereo not given)	inactive: -8.45%
CP(=O)(Nc1ccccc1F)Oc1ccccc1 (stereo not given)	inactive: -5.47%
CP(=O)(Nc1ccc2c(c1)OCCO2)Oc1ccccc1 (stereo not given)	inactive: -10.7%
Cc1ccccc1NP(C)(=O)Nc1ccccc1C	inactive: -9.67%
CP(=O)(Nc1ccc(SC(F)(F)F)cc1)Oc1ccc(F)cc1 (stereo not given)	inactive: -11%
CCOP(C)(=S)SCC(=O)NC(C)(CC)C(=O)O (stereo not given)	inactive: -5.67%
O=[N+]([O-])c1cc([N+](=O)[O-])c(NCC2CCS(=O)(=O)C2)c([N+](=O)[O-])c1 (stereo not given)	inactive: -11.1%
Cc1cc(-c2cccc3ccccc23)c(C)cn1.O=[N+]([O-])c1cc([N+](=O)[O-])c(O)c([N+](=O)[O-])c1	inactive: 0.839%
O=[N+]([O-])c1ccc(OP2(=O)COCCO2)cc1 (stereo not given)	inactive: -9.25%
Cc1c(C(c2ccc3c(c2)OCO3)c2c(C)n(C)n(-c3ccccc3)c2=O)c(=O)n(-c2ccccc2)n1C.O=[N+]([O-])c1cc([N+](=O)[O-])c(O)c([N+](=O)[O-])c1	inactive: -11.7%
COc1ccc(OP(C)(=O)Nc2cccc(Br)c2)cc1 (stereo not given)	inactive: -7.15%
COc1ccc(NP(C)(=O)Oc2ccccc2OC)cc1 (stereo not given)	inactive: 0.398%
CN(C)CCOC(=O)C(O)(c1ccccc1)C1CCCCC1 (stereo not given)	inactive: -7.51%

SMILES	inhibition
CP(=O)(OC12CC3CC(CC(C3)C1)C2)OC12CC3CC(CC(C3)C1)C2	inactive: -12.3%
CCOC(=O)c1ccc(NP(C)(=O)Oc2ccc(Cl)cc2)cc1 (stereo not given)	inactive: -10.5%
CP(=O)(Nc1ccc(Cl)cc1)Oc1ccc(F)cc1 (stereo not given)	inactive: 0.0445%
COc1ccccc1OP(C)(=O)Nc1ccccc1Br (stereo not given)	inactive: -12.1%
CC(C)(C)c1ccc(OP(C)(=O)O)cc1	inactive: -1.36%
CN(C)C(=O)c1c([N+](=O)[O-])cc([N+](=O)[O-])cc1[N+](=O)[O-]	inactive: -19.5%
COc1ccc(OP(C)(=O)Nc2ccc(Br)cc2)cc1 (stereo not given)	inactive: -6.6%
CCN(CC)CC(O)COC(=O)C(O)(c1ccccc1)C1CCCCC1 (stereo not given)	inactive: 0.073%
CCc1ccc(OP(C)(=O)Nc2cccnc2)cc1 (stereo not given)	inactive: -12.2%
CP(=O)(Oc1ccccc1)N1CCOC1=O (stereo not given)	inactive: 1.68%
O=C(OCCCN1CCCC1)C(O)(c1ccccc1)C1CCCCC1 (stereo not given)	inactive: -6.08%
COc1ccccc1OP(C)(=O)Nc1c(C)n(C)n(-c2ccccc2)c1=O (stereo not given)	inactive: -6.99%
Cc1c(NP(C)(=O)Oc2ccc(C(C)C)cc2)c(=O)n(-c2ccccc2)n1C (stereo not given)	inactive: -2.34%
O=[N+]([O-])c1cc([N+](=O)[O-])c(Nc2ccccn2)c([N+](=O)[O-])c1	inactive: 4.25%
CCc1ccc(OP(C)(=O)O)cc1	inactive: -5.98%
COc1ccccc1OP(C)(=O)Nc1ccc(C)cc1C (stereo not given)	inactive: -1.44%
CP(=O)(Nc1ccccn1)Oc1ccccc1 (stereo not given)	inactive: 2.93%
COc1ccccc1OP(C)(=O)Nc1ccc(Br)cc1 (stereo not given)	inactive: 0.0285%
CN(C)CCOC(=O)C(O)(c1ccccc1)C1CCCC1 (stereo not given)	inactive: -20.9%
COc1ccc(OP(C)(=O)Nc2ccccn2)cc1 (stereo not given)	inactive: -4.13%
CP(=O)(Nc1ccc(Cl)cc1Cl)Oc1ccccc1 (stereo not given)	inactive: -0.276%
CCCCCCCCCCCCCCCC1C[N+](C)(C)CCOP(C)(=O)O1 (stereo not given)	inactive: 10.5%
CP(=O)(OCCOc1ccccc1)OCCOc1ccccc1	inactive: 1.36%

SMILES	inhibition
Cc1cc(C)cc(OP(C)(=O)Nc2cccc(C(F)(F)F)c2)c1 (stereo not given)	inactive: 4.31%
O=C1C(O)=C([N+](=O)[O-])C(=O)C(O)=C1[N+](=O)[O-]	inactive: -7.51%
COc1ccc(OP(C)(=O)Nc2ccccc2Br)cc1 (stereo not given)	inactive: -16.1%
COc1ccccc1OP(C)(=O)Nc1ccc(C)c(C)c1 (stereo not given)	inactive: -5.57%
CCOC(=O)c1ccc(NP(C)(=O)Oc2ccccc2)cc1 (stereo not given)	inactive: -6.06%
Cc1ccc(NP(C)(=O)Oc2ccccc2)c(C)c1 (stereo not given)	inactive: -15.4%
COc1ccccc1OP(C)(=O)Nc1ccc(C)cc1 (stereo not given)	inactive: -2.99%
COc1ccc(OP(C)(=O)Nc2cccc(F)c2)cc1 (stereo not given)	inactive: -8.49%
COc1ccccc1OP(C)(=O)Nc1cc(Cl)ccc1C (stereo not given)	inactive: -11.6%
Cc1cc(C)cc(OP(C)(N)=O)c1 (stereo not given)	inactive: -7.79%
O=[N+]([O-])c1cc([N+](=O)[O-])c(Nc2cccnc2)c([N+](=O)[O-])c1	inactive: -11.2%
Cc1cccc(C)c1OP(C)(N)=O (stereo not given)	inactive: 2.11%
CC(C)(C)c1ccc(OP(C)(=O)Nc2ccc(SC(F)(F)F)cc2)cc1 (stereo not given)	inactive: -0.655%
O=[N+]([O-])c1ccc2c(c1)C=Nc1ccccc1O2	inactive: 18.8%
CCN(CC)CCCOC(=O)C(O)(c1ccccc1)c1ccccc1	inactive: 6.02%
CCOP(C)(=S)SCC(=O)NC(C)C(=O)O (stereo not given)	inactive: -14.3%
CCOC(=O)c1ccc(NP(C)(=O)Oc2ccc(OC)cc2)cc1 (stereo not given)	inactive: -12%
CP(=O)(Nc1ccccn1)Oc1ccc(Cl)cc1 (stereo not given)	inactive: 0.51%
CP(=O)(Oc1ccccc1)OC(c1ccccc1)C(F)(F)F (stereo not given)	inactive: -8.69%
Cc1cccc(C)c1OP(C)(=O)Nc1ccc(SC(F)(F)F)cc1 (stereo not given)	inactive: -8.32%
Cc1cc(C)cc(OP(C)(=O)Nc2ccc(SC(F)(F)F)cc2)c1 (stereo not given)	inactive: 11.8%
CP(=O)(NC(=O)Nc1ccccc1)Oc1ccccc1 (stereo not given)	inactive: 3.97%
CCc1ccc(OP(C)(=O)N2CCN(c3ccc([N+](=O)[O-])cc3)CC2)cc1 (stereo not given)	inactive: -7.82%

SMILES	inhibition
CP(=S)(Nn1cnnc1)Oc1ccccc1 (stereo not given)	inactive: 9.04%
COc1ccccc1OP(C)(=O)Nc1ccccc1 (stereo not given)	inactive: -3.2%
CP(=O)(Nc1ccccc1Br)Oc1ccccc1 (stereo not given)	inactive: -10.4%
CN1CCCCC1COC(=O)C1(O)c2ccccc2CCc2ccccc21 (stereo not given)	inactive: 5.61%
COc1ccccc1OP(C)(=O)Nc1c(C)cccc1C (stereo not given)	inactive: -3.72%
CCCOc1ccc(NP(C)(=O)Oc2ccc(Cl)cc2)cc1 (stereo not given)	inactive: -8.46%
CP(=O)(Nc1ccc(SC(F)(F)F)cc1)Oc1ccccc1 (stereo not given)	inactive: -1.27%
CCOC(=O)C(CC)C1=NC(C)(C)Cc2ccccc21.O=[N+]([O-])c1cc([N+](=O)[O-])c(O)c([N+](=O)[O-])c1 (stereo not given)	inactive: -3.12%
CC1=C2N=C(C=C3N=C(C(C)=C4[N-][C@@](C)([C@@H]5N=C1[C@](C)(CCC(=O)NC[C@@H](C)OP(=O)([O-])O[C@H]1[C@@H](O)[C@@H](n6cnc7cc(C)c(C)cc76)O[C@@H]1CO)[C@H]5CC(N)=O)[C@@](C)(CC(N)=O)[C@@H]4CCC(N)=O)[C@@](C)(CC(N)=O)[C@@H]3CCC(N)=O)C(C)(C)[C@@H]2CCC(N)=O.[C-]#N.[Co+3]	inactive: 2.13%
O=[N+]([O-])c1cc([N+](=O)[O-])c(Nc2nnnn2CCO)c([N+](=O)[O-])c1	inactive: -1.15%
O=[N+]([O-])c1cc([N+](=O)[O-])c(-c2cnn(-c3ccccc3)c2)c([N+](=O)[O-])c1	inactive: -16.1%
Cc1nc2ccc3ccccc3c2s1.O=[N+]([O-])c1cc([N+](=O)[O-])c(O)c([N+](=O)[O-])c1	inactive: -8.46%
O=[N+]([O-])c1cc([N+](=O)[O-])c(-n2nnc3ccccc32)c([N+](=O)[O-])c1	inactive: 2.67%
Cc1cc(C)cc(OP(C)(=O)Nc2ccccn2)c1 (stereo not given)	inactive: 2.18%
CP(=O)(Nc1cccc(Br)c1)Oc1ccccc1 (stereo not given)	inactive: -5.76%
Cc1ccc(C)c(NP(C)(=O)Oc2ccccc2)c1 (stereo not given)	inactive: 4.38%
COc1ccccc1OP(C)(=O)Nc1cccc(Br)c1 (stereo not given)	inactive: -17.8%
Cc1cc(C)cc(OP(C)(=O)Nc2ccc(C)cc2C)c1 (stereo not given)	inactive: -5.96%
CCOC(=O)c1ccc(NP(C)(=O)Oc2cc(C)cc(C)c2)cc1 (stereo not given)	inactive: -10.9%
CC1=NCCc2c1[nH]c1ccccc21.O=[N+]([O-])c1cc([N+](=O)[O-])c(O)c([N+](=O)[O-])c1	inactive: -5.65%
O=C(O)c1cccc(Nc2c([N+](=O)[O-])cc([N+](=O)[O-])cc2[N+](=O)[O-])c1	inactive: -5.03%
